## Apparent affinities of Ab-14 variants for a coronavirus HR2 peptide

All variants were tested on one target, the spike HR2 peptide PDVDLGDISGINAS (SARS-CoV-2).

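The starting antibody came from a phage panning campaign against this peptide. In library AAYL49, one, two or three CDR residues were substituted; doubles and triples were drawn at random. In AlphaSeq, yeast of one mating type display the scFv and yeast of the other type display the target. Pairs that bind mate more often; barcode pairs of the diploids are counted by sequencing. Scores were corrected for input abundance and mapped to Kd with protein pairs of known affinity run in the same pool. Mating was done three times.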

Parent: Ab-14, a human scFv built as VH, the linker GGGGSGGGGSGGGGS, VL. Only the CDRs of the heavy chain vary.
VH: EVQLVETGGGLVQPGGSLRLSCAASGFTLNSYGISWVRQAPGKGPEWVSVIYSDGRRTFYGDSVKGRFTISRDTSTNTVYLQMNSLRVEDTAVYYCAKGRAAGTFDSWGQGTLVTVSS
VL: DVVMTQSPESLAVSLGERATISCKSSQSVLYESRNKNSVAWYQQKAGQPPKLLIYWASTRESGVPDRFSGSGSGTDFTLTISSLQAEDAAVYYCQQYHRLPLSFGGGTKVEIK

Changes read parent residue, position, new residue, counted from the first residue of the VH shown.
The read-out is the apparent dissociation constant on a log10 scale (nM): the lower, the stronger.
"n.d." marks a missing value. The strain was present, yet no cells mated with the target were sequenced in that replicate, which points to weak or no binding.
Nonspecific signal, from three strains lacking the peptide, appeared in 15% of pairings of library AAYL49, centred on 4.06 (5% of these signals below 2.83); values are not corrected for it. Also given: how often the same scFv was detected with the empty control strains, with their mean in brackets.

changes	log10 Kd, replicates	signal with controls
L29Y+Y32P+D54C	6.33 / n.d. / n.d.	6/9 (3.93)
T28E+N30Y+A101D	2.10 / 1.93 / 2.48	4/9 (4.11)
I34C+F59T	n.d. / n.d. / n.d.	2/9 (2.52)
F27T+S53C+A101F	n.d. / 2.39 / n.d.	0/9
N30Q+S53F+G61D	3.22 / n.d. / 3.44	0/9
G26F+S31E+Y52M	n.d. / n.d. / n.d.	0/9
S53E+Y60K+S63F	4.05 / n.d. / 4.38	5/9 (3.91)
G55R+V64E	n.d. / n.d. / n.d.	1/9 (3.63)
T28W+R56W+S63K	2.03 / 2.34 / 2.56	2/9 (3.26)
I51T+T104S+S107A	n.d. / n.d. / n.d.	1/9 (4.17)
F59L+G99N+D106F	3.25 / 3.24 / 3.91	0/9
S63W+K65R+S107L	n.d. / 2.99 / n.d.	0/9
G61H+V64Q+S107D	n.d. / n.d. / n.d.	1/9 (3.69)
G55F+T58K+S107Q	n.d. / n.d. / 4.49	2/9 (4.15)
V50A+T58L+V64N	4.59 / n.d. / n.d.	3/9 (4.43)
F27E+R100M+S107A	2.91 / 2.62 / n.d.	1/9 (3.38)
Y32D+G33V+G61K	6.91 / 5.95 / 4.42	9/9 (5.13)
F27A+G55W+R100A	n.d. / n.d. / n.d.	1/9 (5.08)
T28G+S63R+A102E	n.d. / n.d. / 3.76	1/9 (5.98)
Y52N+F105P+S107K	n.d. / 4.78 / 4.11	4/9 (4.71)
S31V+G33A+R56L	n.d. / n.d. / n.d.	0/9
Y32P+G99R+A101I	n.d. / 4.68 / n.d.	0/9
G99Q+T104I+D106E	n.d. / n.d. / 3.82	3/9 (3.85)
F27P+Y60H+A102G	4.33 / n.d. / n.d.	2/9 (4.99)
R57S+A101D+D106Q	4.06 / 3.31 / n.d.	3/9 (3.89)
I34A+G55L+T58L	n.d. / n.d. / n.d.	0/9
G26L+N30E+G55R	n.d. / n.d. / n.d.	0/9
T28Y+I34T+S53K	n.d. / n.d. / n.d.	0/9
F27P+T28R+V64T	n.d. / n.d. / n.d.	1/9 (2.06)
I51F+R100F+T104R	n.d. / n.d. / n.d.	2/9 (2.86)
Y60L+S63M+R100D	n.d. / n.d. / n.d.	1/9 (4.58)
V50L+F59C+D106R	n.d. / n.d. / n.d.	0/9
V50A+R100A	4.50 / 3.80 / 3.75	5/9 (4.86)
S53C+D54E	n.d. / 3.86 / n.d.	0/9
G33P+G61F+G103T	5.13 / 5.20 / n.d.	2/9 (4.40)
G26I+R57A+Y60Q	n.d. / n.d. / n.d.	1/9 (3.66)
N30M+D54K+T104L	n.d. / n.d. / n.d.	0/9

From the AlphaSeq antibody data of Engelhart et al. 2022 (doi:10.1038/s41597-022-01779-4), copy in the FLAb collection.